The results in this text go back to article PMC11685595 (Scientific Reports, 2024).

This assay addresses Arabidopsis thaliana Plant Cysteine Oxidase 4, Ni(II)-substituted (AtPCO4.Ni(II)) (Arabidopsis thaliana, UniProt Q9SJI9 1-241). In words: other fluorescence titration; intrinsic Trp fluorescence quenching of AtPCO4.Ni(II) with the shorter peptide (Supplementary Fig. S4); conditions not given. To be noted: both partners purified.

B1: RAP2_(2-7), a shorter peptidic form of the RAP peptide (peptide)
peptide: CGGAII
notes: RELATED TO AP-2.12 (RAP2.12), Arabidopsis thaliana, residues 2-7; also called RAP2-7
For the molecule B1, the binding result is recorded as “binds”.
